In the assay the target is Cif (CFTR inhibitory factor) (Pseudomonas aeruginosa, UniProt A0A0H2ZD27). Conditions: substrate CMNGC; apparently not competitive.

The chains behind the UniProt entries cited, without tags or fusion partners. Residues count along the entry.
UniProt A0A0H2ZD27, 25-319 limits assumed: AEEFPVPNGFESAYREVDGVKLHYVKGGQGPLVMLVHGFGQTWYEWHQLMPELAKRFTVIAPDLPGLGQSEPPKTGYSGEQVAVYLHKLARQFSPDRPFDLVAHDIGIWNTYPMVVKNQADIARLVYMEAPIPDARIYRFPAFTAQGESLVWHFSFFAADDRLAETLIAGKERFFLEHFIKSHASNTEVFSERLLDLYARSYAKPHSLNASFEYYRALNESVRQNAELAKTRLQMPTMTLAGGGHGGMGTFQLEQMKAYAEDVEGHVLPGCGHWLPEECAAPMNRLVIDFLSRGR

In the case of `O=C(O)Cc1cc(I)c(Oc2ccc(O)c(I)c2)c(I)c1` [compound 3, tiratricol], the Ki result is “Kinetic determination of tiratricol equilibrium inhibition constant (Ki) of Cif”.

For the origin of these results see PMC4556431 (Angewandte Chemie (International ed. in English), 2015).
